Laboratory results taken from patent US20040076968A1, “Method for detecting pre-disposition to hepatotoxicity” (priority 2000, published 2004).

Experiments:
UGT1A6 gene = experiment: Association of UGT1A6 polymorphisms with liver function abnormality in tolcapone-treated patients (case-control genotyping); type: in vivo, human
[1] = system: UGT1A gene 3′UTR (exon 5); experiment: Association of the UGT1A 3′UTR polymorphism with liver function abnormality in tolcapone-treated patients (case-control genotyping); type: in vivo, human

Relative Risk (UGT1A6 gene; UGT1A6_232 Ser7Ala, Allele G): 1.41
Relative Risk (UGT1A6 gene; UGT1A6_232 Ser7Ala, Allele T): 0.64
Relative Risk (UGT1A6 gene; UGT1A6_528 A/G, Allele A): 0.55
Relative Risk (UGT1A6 gene; UGT1A6_528 A/G, Allele G): 1.52
Relative Risk (UGT1A6 gene; UGT1A6_754 Thr181Ala, Allele Ala): 1.50
Relative Risk (UGT1A6 gene; UGT1A6_754 Thr181Ala, Allele Thr): 0.57
Relative Risk (UGT1A6 gene; UGT1A6_765 Arg184Ser, Allele Arg): 0.58
Relative Risk (UGT1A6 gene; UGT1A6_765 Arg184Ser, Allele Ser): 1.47
Relative Risk ([1]; UGT1A-3′_908, Allele C): 1.51
Relative Risk ([1]; UGT1A-3′_908, Allele G): 0.61
SMILES: Cc1ccc(C(=O)c2cc(O)c(O)c([N+](=O)[O-])c2)cc1 [tolcapone]
